Assay [1] deals with Kappa-type opioid receptor (Cavia porcellus) (UniProt P41144). Put plainly: Binding affinity against opioid receptor kappa 1 using [3H]U-69593 as a radioligand.
For assay [2] the target is unchanged. In words: Binding affinity against opioid receptor kappa 1 using with [3H]bremazocine as radioligand.

Sequences of proteins named here, by UniProt entry; tags and fusion partners are left off. A change or cut given only in a name is not applied to a line headed by its entry.
UniProt P41144: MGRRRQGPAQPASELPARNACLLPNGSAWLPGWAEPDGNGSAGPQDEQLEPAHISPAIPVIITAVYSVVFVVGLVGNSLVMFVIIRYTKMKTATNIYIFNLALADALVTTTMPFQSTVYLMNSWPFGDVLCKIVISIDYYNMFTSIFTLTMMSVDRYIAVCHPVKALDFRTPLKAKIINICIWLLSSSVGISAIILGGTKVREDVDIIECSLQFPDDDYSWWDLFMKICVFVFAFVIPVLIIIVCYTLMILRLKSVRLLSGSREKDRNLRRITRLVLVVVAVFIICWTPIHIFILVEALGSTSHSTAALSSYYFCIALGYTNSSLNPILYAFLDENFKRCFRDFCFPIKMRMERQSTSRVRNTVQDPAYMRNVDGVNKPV

In the case of `CN(C(=O)Cc1ccc(Cl)c(Cl)c1)[C@@H]1CCCC[C@@H]1N1CCCC1`, the Control in assay [1] stood at 9.6%; in assay [2], 96.2%.

In the case of `CN(CCc1ccc(Cl)c(Cl)c1)C1CCCCC1N1CCCC1` (stereo not given), the Control was determined as 79% in assay [1] and 99.2% in assay [2].

Consider `CN(C(=O)Cc1cccs1)[C@H]1CCCC[C@H]1N1CCCC1`, for which the Control in assay [1] is 84.6%; in assay [2], 106%.

`CN([C@H]1CCCC[C@H]1N1CCCC1)S(=O)(=O)c1ccccc1`: the Control in assay [1] was 98.5%; in assay [2], 106%.

As to `CN(CCc1ccc2ccccc2c1)[C@H]1CCCC[C@H]1N1CCCC1`, the Control amounted to 91.5% in assay [1] and 86.5% in assay [2].

The record behind these values is ChEMBL document CHEMBL1125016, “Synthesis and evaluation of N-substituted cis-N-methyl-2-(1-pyrrolidinyl)cyclohexylamines as high affinity sigma receptor ligands. Identification of a new class of highly potent and selective sigma receptor probes” (1990).
